The values that follow are results of earlier work, collected in patent US20180256623A1, “COMPOSITIONS AND METHOD FOR REGULATING ADIPOSE TISSUE LIPOLYSIS, INSULIN-RESISTANCE, AND HYPERGLYCEMIA” (University of Virginia Patent Foundation, priority 2015, published 2018).

SMILES strings stand for the structures.

This data set concerns 3T3-L1. Particulars: read-out: IC50 (3T3-L1); Table 3, cyclic amine-derived ureas; means of three experiments; Na = not active; cited from earlier work.

One may read the IC50 as the concentration that inhibits the measured activity by half. For `Cc1c(C(C)C)c(=O)on1C(=O)N1CCN(c2ncccn2)CC1`, the IC50 was 51 nM.

For the molecule `Cc1c(C(C)C)c(=O)on1C(=O)N1CCN(c2ccccc2Cl)CC1`, the IC50 is 31 nM.
